## Binding of CDR-mutated scFvs to a peptide of the spike HR2 region

Source: Engelhart et al. 2022 (doi:10.1038/s41597-022-01779-4), MIT Lincoln Laboratory and A-Alpha Bio; data file from the FLAb repository.

Antigen: PDVDLGDISGINAS, a 14-residue peptide of the SARS-CoV-2 spike HR2 region.

Ab-95 is the parent antibody, in scFv form: VH, then the linker GGGGSGGGGSGGGGS, then VL. The heavy chain is unchanged in all variants.
VH: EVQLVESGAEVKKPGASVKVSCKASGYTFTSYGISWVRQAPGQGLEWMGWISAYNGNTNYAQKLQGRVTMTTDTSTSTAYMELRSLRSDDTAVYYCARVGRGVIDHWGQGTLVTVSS
VL: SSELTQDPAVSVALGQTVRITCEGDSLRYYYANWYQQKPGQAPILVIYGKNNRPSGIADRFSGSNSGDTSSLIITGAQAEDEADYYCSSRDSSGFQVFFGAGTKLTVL

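Phage display of a naive human antibody library on the peptide gave the parent. Variants in AAYL52 differ from the parent at up to three CDR positions; double and triple changes were sampled at random. AlphaSeq pools MATa yeast showing the antibodies with MATalpha yeast showing the peptide. Mating (16 h, 30 °C) was followed by selection of diploids and sequencing of their barcodes. Read counts were normalised to the haploid input and turned into Kd by a linear fit to BCL2-family pairs of known affinity, for each replicate. There are three technical replicates.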

Sequences are complete VL domains.
Affinities are written as log10 Kd with Kd in nM; a lower number is a better binder.
A mean of the replicates is given; it leaves out those without a signal.
"ND" marks a missing value. The strain was present, yet no cells mated with the target were sequenced in that replicate, which points to weak or no binding.
The list is sorted by this average, lowest first, undetected variants last.
Background: pairings of library AAYL52 with three empty control strains gave a value in 28% of cases (median 3.91, 5th percentile 2.90). Values in that range, when seen in few replicates, are hard to tell from nonspecific mating.

{"VL": "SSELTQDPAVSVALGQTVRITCEGDSLRYYQANWYQQKPGQAPILVIYGKNGRPSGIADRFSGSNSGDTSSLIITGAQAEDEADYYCSSPDSSGFQVFFGAGTKLTVL", "log10 Kd, replicates": "2.03 2.11 1.52", "mean log10 Kd (nM)": "1.89"}
{"VL": "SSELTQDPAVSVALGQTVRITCEGDSLFYAYANWYQQKPGQAPILVIYGKNNRPSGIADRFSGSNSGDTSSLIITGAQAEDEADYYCSSADSSGFQVFFGAGTKLTVL", "log10 Kd, replicates": "2.05 2.56 1.29", "mean log10 Kd (nM)": "1.97"}
{"VL": "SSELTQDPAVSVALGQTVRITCEGDSLRYYYANWYQQKPGQAPILVIYGKNNRPSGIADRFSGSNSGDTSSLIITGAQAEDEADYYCSQRDSSGFTVKFGAGTKLTVL", "log10 Kd, replicates": "2.47 2.98 2.83", "mean log10 Kd (nM)": "2.76"}
{"VL": "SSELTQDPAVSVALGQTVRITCEGDSIRYYYANWYQQKPGQAPILVIYGKKNRPSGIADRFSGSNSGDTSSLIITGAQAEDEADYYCSSRTSSGFQVFFGAGTKLTVL", "log10 Kd, replicates": "3.54 2.93 2.83", "mean log10 Kd (nM)": "3.10"}
{"VL": "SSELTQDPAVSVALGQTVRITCEGDSLRYRYANWYQQKPGQAPILVIYGKNNRPSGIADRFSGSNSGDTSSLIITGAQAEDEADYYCSSRDMSFFQVFFGAGTKLTVL", "log10 Kd, replicates": "2.84 2.79 3.81", "mean log10 Kd (nM)": "3.15"}
{"VL": "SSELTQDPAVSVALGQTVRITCEGDSLRYYYCNWYQQKPGQAPILVIYGKNNRPSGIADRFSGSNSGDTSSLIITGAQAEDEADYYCNSRDSSGFQYFFGAGTKLTVL", "log10 Kd, replicates": "2.46 3.50 3.71", "mean log10 Kd (nM)": "3.22"}
{"VL": "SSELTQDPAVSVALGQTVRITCEGDILRYYYAAWYQQKPGQAPILVIYGKNNRPSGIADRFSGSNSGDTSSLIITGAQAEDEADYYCSSRDLSGFQVFFGAGTKLTVL", "log10 Kd, replicates": "ND ND 3.35", "mean log10 Kd (nM)": "3.35"}
{"VL": "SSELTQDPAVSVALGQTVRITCEGDSLRYYYYNWYQQKPGQAPILVIYGKFNRPTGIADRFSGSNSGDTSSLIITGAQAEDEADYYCSSRDSSGFQVFFGAGTKLTVL", "log10 Kd, replicates": "3.48 3.40 ND", "mean log10 Kd (nM)": "3.44"}
{"VL": "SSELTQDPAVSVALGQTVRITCEGDELRYYYANWYQQKPGQAPILVIYGGNNFPSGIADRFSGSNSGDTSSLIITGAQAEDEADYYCSSRDSSGFQVFFGAGTKLTVL", "log10 Kd, replicates": "4.26 ND 2.77", "mean log10 Kd (nM)": "3.52"}
{"VL": "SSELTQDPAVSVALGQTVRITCEGDSLRYYYANWYQQKPGQAPILVIYGKNNRPEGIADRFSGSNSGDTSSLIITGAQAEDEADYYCSSHDRSGFQVFFGAGTKLTVL", "log10 Kd, replicates": "ND 4.07 3.49", "mean log10 Kd (nM)": "3.78"}
{"VL": "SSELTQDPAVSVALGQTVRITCEGDSLQYYYANWYQQKPGQAPILVIYGKANRPSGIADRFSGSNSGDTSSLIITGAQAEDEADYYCSHRDSSGFQVFFGAGTKLTVL", "log10 Kd, replicates": "ND ND 3.81", "mean log10 Kd (nM)": "3.81"}
{"VL": "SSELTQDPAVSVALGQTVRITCEGDSLYYYYANWYQQKPGQAPILVIYGKVNRPSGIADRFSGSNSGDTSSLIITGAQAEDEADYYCSSRDSSGSQVFFGAGTKLTVL", "log10 Kd, replicates": "3.88 ND ND", "mean log10 Kd (nM)": "3.88"}
{"VL": "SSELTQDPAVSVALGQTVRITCEMDSLRYYYANWYQQKPGQAPILVIYGKNNRPSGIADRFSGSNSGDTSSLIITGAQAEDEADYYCSSRWSVGFQVFFGAGTKLTVL", "log10 Kd, replicates": "3.63 ND 4.16", "mean log10 Kd (nM)": "3.90"}
{"VL": "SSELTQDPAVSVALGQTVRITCEGDYLRMYYANWYQQKPGQAPILVIYDKNNRPSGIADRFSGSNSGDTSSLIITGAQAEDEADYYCSSRDSSGFQVFFGAGTKLTVL", "log10 Kd, replicates": "3.86 ND 4.22", "mean log10 Kd (nM)": "4.04"}
{"VL": "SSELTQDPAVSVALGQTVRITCEGDSLRYYYANWYQQKPGQAPILVIYGKNRRPSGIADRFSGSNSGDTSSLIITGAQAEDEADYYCQSRDSSGFQVQFGAGTKLTVL", "log10 Kd, replicates": "4.35 3.50 4.35", "mean log10 Kd (nM)": "4.07"}
{"VL": "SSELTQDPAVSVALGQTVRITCEGDSLRCYYVNWYQQKPGQAPILVIYGKNNRPSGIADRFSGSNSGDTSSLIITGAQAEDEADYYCSSRDSSGFYVFFGAGTKLTVL", "log10 Kd, replicates": "4.72 4.61 2.96", "mean log10 Kd (nM)": "4.10"}
{"VL": "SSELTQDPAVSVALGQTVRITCEGDSLRYYYANWYQQKPGQAPILVIYGKNNEPTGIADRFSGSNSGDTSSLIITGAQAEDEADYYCSSRRSSGFQVFFGAGTKLTVL", "log10 Kd, replicates": "4.12 ND ND", "mean log10 Kd (nM)": "4.12"}
{"VL": "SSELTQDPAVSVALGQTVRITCEGDSLRYYFANWYQQKPGQAPILVIYGRNNRPSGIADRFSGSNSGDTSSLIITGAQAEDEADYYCSSRESSGFQVFFGAGTKLTVL", "log10 Kd, replicates": "5.13 ND 3.44", "mean log10 Kd (nM)": "4.28"}
{"VL": "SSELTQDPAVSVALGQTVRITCEGDYLRYYYHNWYQQKPGQAPILVIYGKNNRPSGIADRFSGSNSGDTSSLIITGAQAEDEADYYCSSRDSSGFQHFFGAGTKLTVL", "log10 Kd, replicates": "ND 5.32 ND", "mean log10 Kd (nM)": "5.32"}
{"VL": "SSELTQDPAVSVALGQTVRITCEPDSLRCYYANWYQQKPGQAPILVIYGKNNRPSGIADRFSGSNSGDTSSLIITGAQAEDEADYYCSSRDSSHFQVFFGAGTKLTVL", "log10 Kd, replicates": "ND ND ND", "mean log10 Kd (nM)": "ND"}
{"VL": "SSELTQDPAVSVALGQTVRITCEGDSLRYYYYNWYQQKPGQAPILVIYGKNNRPSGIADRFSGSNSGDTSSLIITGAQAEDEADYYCSSRDSSGHAVFFGAGTKLTVL", "log10 Kd, replicates": "ND ND ND", "mean log10 Kd (nM)": "ND"}
{"VL": "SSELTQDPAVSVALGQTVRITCEGDSLRYYYYNWYQQKPGQAPILVIYHKNNRPWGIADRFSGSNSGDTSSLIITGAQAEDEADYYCSSRDSSGFQVFFGAGTKLTVL", "log10 Kd, replicates": "ND ND ND", "mean log10 Kd (nM)": "ND"}
{"VL": "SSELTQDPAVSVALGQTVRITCECDSLRYYYANWYQQKPGQAPILVIYGKMNRPSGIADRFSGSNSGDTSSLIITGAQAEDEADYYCSSRDSSGFQDFFGAGTKLTVL", "log10 Kd, replicates": "ND ND ND", "mean log10 Kd (nM)": "ND"}

Top 2 of the variants detected in all replicates, tightest first:

VL,"log10 Kd, replicates",mean log10 Kd (nM)
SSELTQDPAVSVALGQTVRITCEGDSLRYYQANWYQQKPGQAPILVIYGKNGRPSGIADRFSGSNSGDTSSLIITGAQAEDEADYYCSSPDSSGFQVFFGAGTKLTVL,2.03 2.11 1.52,1.89
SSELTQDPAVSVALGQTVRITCEGDSLFYAYANWYQQKPGQAPILVIYGKNNRPSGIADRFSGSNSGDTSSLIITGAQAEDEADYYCSSADSSGFQVFFGAGTKLTVL,2.05 2.56 1.29,1.97